Assay [1] deals with T1, ferroportin (Homo sapiens, UniProt Q9NP59).
T1 sequence (Q9NP59 1-571): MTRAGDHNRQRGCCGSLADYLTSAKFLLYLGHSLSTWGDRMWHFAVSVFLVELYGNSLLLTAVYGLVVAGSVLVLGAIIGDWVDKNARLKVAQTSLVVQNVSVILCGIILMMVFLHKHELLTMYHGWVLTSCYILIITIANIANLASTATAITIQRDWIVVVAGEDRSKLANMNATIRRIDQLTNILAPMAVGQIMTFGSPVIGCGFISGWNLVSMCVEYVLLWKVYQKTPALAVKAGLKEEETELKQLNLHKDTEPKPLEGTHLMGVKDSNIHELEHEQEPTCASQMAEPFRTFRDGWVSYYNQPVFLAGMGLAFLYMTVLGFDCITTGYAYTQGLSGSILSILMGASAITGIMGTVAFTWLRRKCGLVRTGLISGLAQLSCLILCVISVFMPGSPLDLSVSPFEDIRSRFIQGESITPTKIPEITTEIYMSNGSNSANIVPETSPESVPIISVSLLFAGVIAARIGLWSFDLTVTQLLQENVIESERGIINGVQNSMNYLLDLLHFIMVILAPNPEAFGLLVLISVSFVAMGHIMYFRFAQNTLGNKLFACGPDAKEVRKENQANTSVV
Briefly: T47D cell-based ferroportin internalization assay in presence of 0.5% mouse serum albumin (MSA). Details: a human breast carcinoma adherent cell line which endogenously expresses ferroportin; host or cells: T47D. As to the method: The potency of the peptides in causing ferroportin internalization was evaluated in a T47D cell-based assay. […] In this internalization assay, the potency of the test peptides was evaluated in the presence of serum albumin, which is the main protein component in the blood. T47D cells were maintained in RPMI media (containing required amount of fetal bovine serum) and regularly sub-cultured. In preparation for the assay, the cells were seeded in 96-well plates at a density of 80-100 k cells per well in 100 ul volume and allowed to rest overnight. On the next day, test peptides were first prepared in dilution series (10-point series, starting concentration of ˜5 μM, typically 3-4×fold dilution steps), all with 0.5% mouse serum albumin (MSA purified from mouse serum; Sigma, A3139). The test peptide dilution series were allowed to incubate at room temperature for 30 min. Then the media was aspirated from the 96-well cell plate and test peptide dilution series were added. After 1 hr incubation, the media with test peptides was aspirated out and AF647-conjugated detection peptide was added at fixed concentration of 200 nM. The AF647-conjugated detection peptide was previously verified to bind to ferroportin and cause its internalization. The cells were washed again after a 2 hr incubation in preparation for flow cytometry analysis. The Median Fluorescence Intensity (MFI) of the AF647-positive population was measured (after removing dead cells and non-singlets from the analysis). The MFI values were used to generate a dose-response curve and obtain IC50 potencies for the test peptides. The IC50 potencies were calculated by using 4-parameter non-linear fitting function in Graphpad Prism, and the results are provided in Table 1C.

For assay [2], the target named is T1, ferroportin. Briefly: FPN activity assay: internalization of ferroportin-GFP in stably transfected HEK293 cells. The following applies: read-out: IC50: FPN. Details: expressed in transfected cells. It counts as cell-based. As to the method: Peptide analogues were tested in vitro for induction of internalization of the human ferroportin protein. Following internalization, the ferroporin protein is degraded. The assay used (FPN activity assay) measures a decrease in fluorescence of the receptor. The cDNA encoding the human ferroportin (SLC40A1) was cloned from a cDNA clone from Origene (NM_014585). The DNA encoding the ferroportin was amplified by PCR using primers also encoding terminal restriction sites for subcloning, but without the termination codon. The ferroportin receptor was subcloned into a mammalian GFP expression vector containing a neomycin (G418) resistance marker in such that the reading frame of the ferroportin was fused in frame with the GFP protein. The fidelity of the DNA encoding the protein was confirmed by DNA sequencing. HEK293 cells were used for transfection of the ferroportin-GFP receptor expression plasmid. The cells were grown according to standard protocol in growth medium and transfected with the plasmids using Lipofectamine (manufacturer's protocol, Invitrogen). The cells stably expressing ferroportin-GFP were selected using G418 in the growth medium (in that only cells that have taken up and incorporated the cDNA expression plasmid survive) and sorted several times on a Cytomation MoFloTM cell sorter to obtain the GFP-positive cells (488 nm/530 nm). The cells were propagated and frozen in aliquots. […] Compound was added to desired final concentration for at least 18 hours in the incubator. Following incubation, the remaining GFP-fluorescence was determined either by whole cell GFP fluorescence (Envision plate reader, 485/535 filter pair), or by Beckman Coulter QuantaTM flow cytometer (express as Geometric mean of fluorescence intensity at 485 nm/525 nm). Compound was added to desired final concentration for at least 18 hours but no more than 24 hours in the incubator. In certain experiments, reference compounds included native Hepcidin, Mini-Hepcidin, and RT-Mini-Hepcidin, which is an analog of mini-hepcidin. The “RI” in RI-Mini-Hepcidin refers to Retro Inverse. A retro inverse peptide is a peptide with a reversed sequence in all D amino acids. An example is that […] becomes […]. The EC50 of these reference compounds for ferroportin internalization/degradation was determined according to the FPN activity assay described above. These peptides served as control standards.

The mark [3] stands for this setting: Table 1C, T47D internalization, 0.5% mouse serum albumin, read-out: IC50: T47D MSA.
Setting [4] is: Table 1C, FPN internalization assay.
The mark [5] stands for this setting: Table 1D, T47D internalization, 0.5% mouse serum albumin, read-out: IC50: T47D MSA.
The mark [6] stands for this setting: Table 1D, FPN internalization assay.

Like-named read-outs stand apart in the source and are kept apart here.

For nine molecules, IC50 and DC50 results are on record in patent US20250170216A1 (Protagonist Therapeutics, Inc., priority 2022, published 2025).

Take `CC[C@H](C)[C@@H]1NC(=O)[C@@H](NC(=O)[C@@H]2CCCN2C(=O)[C@@H](NC(=O)[C@H](Cc2c[nH]cn2)NC(=O)[C@@H](NC(=O)[C@H](CCC(=O)OC)NC(=O)CC(C)C)[C@@H](C)O)C(c2ccccc2)c2ccccc2)CSSC[C@@H](C(N)=O)NC(=O)[C@@H](CCCCN)NC(=O)[C@H](C(c2ccccc2)c2ccccc2)NC(=O)[C@H](CCCCNC(=O)CCCCCNC(=O)[C@H](CN)NC(=O)CCCCCCCCCCCCCCCCC(=O)O)N(C)C1=O` [compound 35]: the IC50 in assay [1] (setting [3]) was 11 to 100 nM. Further, the DC50 in assay [2] (setting [4]) was in the range of 1 to 30 nM.
For the molecule `CC[C@H](C)[C@@H]1NC(=O)[C@@H]2CSCc3cc(cc(c3)CSC[C@H](NC(=O)[C@H](CCC(=O)O)NC(=O)CC(C)C)C(=O)N[C@@H](Cc3c[nH]cn3)C(=O)N[C@@H](C(c3ccccc3)c3ccccc3)C(=O)N3CCC[C@H]3C(=O)N2)CSC[C@@H](C(N)=O)NC(=O)[C@@H](CCCCN)NC(=O)[C@H](CCCCNC(=O)CCCc2ccc(I)cc2)N(C)C(=O)[C@@H](CCCCN)NC1=O` [compound 80], in assay [1], the half-inhibitory concentration (IC50) is more than 500 nM. For the same molecule, in assay [2], the DC50 was more than 500 nM.
`CCCCCCCCCCCCCCCC(=O)N[C@@H](CCC(=O)NCC[N+](C)(C)CC(=O)NCCCC[C@H]1C(=O)N[C@@H](Cc2ccccc2)CC(=O)N[C@H](CCCCN)C(=O)N[C@H](C(N)=O)CSSC[C@H](NC(=O)[C@@H]2CCCN2C(=O)[C@@H](NC(=O)[C@H](Cc2c[nH]cn2)NC(=O)[C@@H](NC(=O)[C@H](CCC(=O)O)NC(=O)CC(C)C)[C@@H](C)O)C(c2ccccc2)c2ccccc2)C(=O)N[C@@H]([C@@H](C)CC)C(=O)N1C)C(=O)O` [compound 93]: in assay [1] (setting [5]), the IC50 was 1 to 10 nM. Further, the DC50 in assay [2] (setting [6]) was in the range of 1 to 30 nM.
`CC[C@H](C)[C@@H]1NC(=O)[C@@H](NC(=O)[C@@H]2CCCN2C(=O)[C@@H](NC(=O)[C@H](Cc2c[nH]cn2)NC(=O)[C@@H](NC(=O)[C@H](CCC(=O)O)NC(=O)CC(C)C)[C@@H](C)O)C(c2ccccc2)c2ccccc2)CSSC(C)(C)[C@@H](C(N)=O)NC(=O)[C@@H](CCCCNC(=O)CCOCCOCCOCCOCCOCCOCCOCCOCCOCCOCCOCCOC)NC(=O)C[C@H](Cc2ccccc2)NC(=O)[C@H](CCCCNC(=O)CCOCCOCCOCCOCCOCCOCCOCCOCCOCCOCCOCCOCCNC(=O)CCCCCCCCCCCCCCCCC(=O)O)NC1=O` [compound 63]: in assay [1] (setting [3]), the 50% inhibitory concentration (IC50) lay within 101 to 500 nM. For the same molecule, in assay [2] (setting [4]), the DC50 lay within 30 to 100 nM.
`CC[C@H](C)[C@@H]1NC(=O)[C@@H](NC(=O)[C@@H]2CCCN2C(=O)[C@@H](NC(=O)[C@H](Cc2c[nH]cn2)NC(=O)[C@@H](NC(=O)[C@H](CCC(=O)O)NC(=O)CC(C)C)[C@@H](C)O)C(c2ccccc2)c2ccccc2)CSSC[C@@H](C(N)=O)NC(=O)[C@@H](CCCCN)NC(=O)[C@H](CCCCNC(=O)[C@H](CN)NC(=O)CCCc2ccc(I)cc2)NC(=O)[C@H](C(c2ccccc2)c2ccccc2)NC(=O)[C@@H](CCCCN)NC1=O` [compound 83]: the IC50 in assay [1] (setting [5]) lay in the range of 1 to 10 nM. Moreover, the DC50 in assay [2] (setting [6]) lay in the range of 30 to 100 nM.
The matching figures for `CC[C@H](C)[C@@H]1NC(=O)[C@@H](NC(=O)[C@@H]2CCCN2C(=O)[C@@H](NC(=O)[C@H](Cc2c[nH]cn2)NC(=O)[C@@H](NC(=O)[C@H](CCC(=O)O)NC(=O)CC(C)C)[C@@H](C)O)C(c2ccccc2)c2ccccc2)CSSC[C@@H](C(N)=O)NC(=O)[C@@H](CCCCN)NC(=O)[C@H](C(c2ccccc2)c2ccccc2)NC(=O)[C@H](CCCCNC(=O)CCCc2ccc(I)cc2)NC1=O` [compound 84]: 1 to 10 nM and 30 to 100 nM.
With `CC[C@H](C)[C@@H]1NC(=O)[C@@H]2CSCc3cc(cc(c3)CSC[C@H](NC(=O)[C@H](CCC(=O)O)NC(=O)CC(C)C)C(=O)N[C@@H](Cc3c[nH]cn3)C(=O)N[C@@H](C(c3ccccc3)c3ccccc3)C(=O)N3CCC[C@H]3C(=O)N2)CSC[C@@H](C(N)=O)NC(=O)[C@@H](CCCCN)NC(=O)[C@H](CCCCNC(=O)CCCc2ccc(I)cc2)N(C)C(=O)[C@H](C(c2ccccc2)c2ccccc2)NC(=O)[C@@H](CCCCN)NC1=O` [compound 81], the IC50 in assay [1] is more than 500 nM. The DC50 in assay [2] is 100 to 500 nM.
With `CCCCCCCCCCCCCCCC(=O)NC(CCC(=O)O)CCC(=O)NCC[N+](C)(C)CC(=O)NCCCC[C@H]1C(=O)N[C@@H](Cc2ccccc2)CC(=O)N[C@H](CCCCN)C(=O)N[C@H](C(N)=O)CSSC[C@H](NC(=O)[C@@H]2CCCN2C(=O)[C@@H](NC(=O)[C@H](Cc2c[nH]cn2)NC(=O)[C@@H](NC(=O)[C@H](CCC(=O)O)NC(=O)CC(C)C)[C@@H](C)O)C(c2ccccc2)c2ccccc2)C(=O)N[C@@H]([C@@H](C)CC)C(=O)N1C` (stereo partly drawn) [compound 91], the IC50 in assay [1] (setting [5]) is 1 to 10 nM. Further, the DC50 in assay [2] (setting [6]) fell in the range of 1 to 30 nM.
As to `CC[C@H](C)[C@@H]1NC(=O)[C@@H](NC(=O)[C@@H]2CCCN2C(=O)[C@@H](NC(=O)[C@H](Cc2c[nH]cn2)NC(=O)[C@@H](NC(=O)[C@H](CCC(=O)O)NC(=O)CC(C)C)[C@@H](C)O)C(c2ccccc2)c2ccccc2)CSSC[C@@H](C(N)=O)NC(=O)[C@@H](CCCCN)NC(=O)[C@H](CCCCNC(=O)[C@H](CCN)NC(=O)CCCCCCCCCCC(=O)O)NC(=O)C[C@H](Cc2ccccc2)NC(=O)[C@@H](CCCCN)NC1=O` [compound 96], the IC50 in assay [1] (setting [5]) was in the range of 11 to 100 nM. The DC50 in assay [2] (setting [6]) lay within 1 to 30 nM.
